Like-named read-outs stand apart in the source and are kept apart here.
What was measured:
VBC [1] = target: T1, VBC (Homo sapiens, UniProt P40337+Q15369+Q15370); experiment: Biolayer interferometry (BLI) binding of peptides to immobilised VBC; conditions: Figure 2A, N-terminal Cul2 peptides and alanine scan of the 8-mer, biotinylated VBC on Super Streptavidin biosensor, peptides 27 µM to 7 mM, 20 mM HEPES pH 7.6, 100 mM NaCl, 1 mM DTT, 0.02% Tween-20, 25 °C, 1:1 model
T1 construct: made in house; host or cells: E. coli BL21(DE3)
Experimental: Biolayer interferometry: BLI experiments were performed in an Octet RED384 (FòrteBio). Biotinylated VBC (25 μg mL^−1) was immobilized on Super Streptavidin‐coated biosensor (FòrteBio). The experiments were conducted at 25 °C, in 20 mM HEPES pH 7.6, 100 mM NaCl, 1 mM DTT and 0.02 % (v/v) Tween‐20 buffer. The response of the reference tips was subtracted from the signal to account for unspecific binding. The data points were fitted using a 1:1 model. […]
peptides. Biotinylated VBC was immobilised on the tips and the peptides were tested in a concentration range from 27 µM to 7 mM. The different colours represent the different concentrations and corresponding responses. The assay was performed […]
Figure S2 – Biolayer interferomery experiments with the alanine scan peptides.
Biotinylated VBC was immobilised on the tips and the peptides were tested in a concentration range from 27 µM to 7 mM. The different colours represent the different concentrations and corresponding responses. The assay was performed in […]
leucine replacement versus VBC tested on a concentration-dependent assay. […]

Chains of the proteins cited; added tags and fusions are not shown. Residues count along the entry.
UniProt P40337, 54-213 partner limits assumed: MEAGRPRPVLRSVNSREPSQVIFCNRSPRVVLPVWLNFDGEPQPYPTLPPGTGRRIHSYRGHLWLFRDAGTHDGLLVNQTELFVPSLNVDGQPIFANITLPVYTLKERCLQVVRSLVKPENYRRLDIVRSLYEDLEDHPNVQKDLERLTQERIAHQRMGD
UniProt Q15370, 1-104 partner limits assumed: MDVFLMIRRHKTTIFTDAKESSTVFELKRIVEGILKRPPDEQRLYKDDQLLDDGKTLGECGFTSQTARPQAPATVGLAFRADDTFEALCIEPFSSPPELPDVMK

VBC [2] = target: T1, VBC; conditions: read-out: K d between VBC and Cul2; cited from earlier work
Description: Our work focused on probing a particular protein–protein interaction (PPI) in the CRL2^VHL ligase. […] We were interested in an epitope of the PPI between Cul2 and the receptor‐adaptor trimeric subunit composed by pVHL, EloB and EloC (VBC). This PPI has been described as comprising three main p ...

Compound | Kd (VBC [1]) [µM] | Kd (VBC [2]) [µM]
CSCC[C@H](N)C(=O)N[C@@H](CO)C(=O)N[C@@H](CC(C)C)C(=O)N[C@@H](CCCCN)C(=O)N1CCC[C@H]1C(=O)N[C@@H](CCCNC(=N)N)C(=O)N[C@H](C(=O)N[C@H](C(=O)N[C@@H](CC(=O)O)C(=O)N[C@@H](Cc1ccccc1)C(N)=O)C(C)C)C(C)C | 4000 ± 300 | –
Cul2: Cullin‐2 scaffold protein of the CRL2^VHL ligase, native partner of VBC | – | 0.042
